Earlier results, collected in patent US20230144023A1, “USE OF BUTYLPHTHALIDE AND DERIVATIVE THEREOF” (CSPC NBP PHARMACEUTICAL CO., LTD, priority 2020, published 2023).

System: chemotherapy-induced peripheral neuropathy
Details: treatment of CIPN; guideline rating; cited from earlier work

Amitriptyline/nortriptyline
Safety: Low
